Earlier results on 1 substance are cited in patent US9687493B2, “Use of NK-1 receptor antagonists for treating hypomagnesemia, neurogenic inflammation, and cardiac dysfunction associated with EGFR-blocking drugs” (THE GEORGE WASHINGTON UNIVERSITY, priority 2014, dated 2017).

For the data set the following is noted: cited from earlier work.

On to cetuximab, for which, under “patients treated with cetuximab”, the “fractional excretion of magnesium” value was “increased”. Besides, where the note is “patients with colorectal cancer, monoclonal antibodies targeting the EGFR”, the “hypomagnesemia in treated patients” value is given as “pronounced hypomagnesemia”.
